Here are results for one compound from article PMC6163981, “Novel and Selective Rhipicephalus microplus Triosephosphate Isomerase Inhibitors with Acaricidal Activity” (Veterinary Sciences, 2018).

One data set deals with mice (strain B6D2F1). Kind of data set: Oral acute toxicology in mice (OECD up-and-down).
Data set [1] deals with Rhipicephalus microplus partially engorged female ticks. In words: Injection of inhibitor into partially engorged females during artificial capillary feeding. To be noted: 2 nmol/tick.

Consider `O=[N+]([O-])c1cccc2no[n+]([O-])c12`, for which, in the data set with mice (strain B6D2F1), the “toxicity grade according to the World Health Organization guidelines” value is recorded as “slight toxicity”. This compound gave an induced mortality in data set [1] of 100%.
